Experimental data reported in patent publication US8741330B2, “Transluminal drug delivery methods and devices” (priority 2006, dated 2014).

Conditions: ratio 3:7 lidocaine to carrier base, 40° C.

In the case of `CCN(CC)CC(=O)Nc1c(C)cccc1C` [lidocaine], the “highest concentration lidocaine mixture achievable with the carrier base materials tried” value is reported as 30%.
